# Experimental data reported in article PMC2698029 (Journal of medicinal chemistry, 2009).
# Test system: Plasmodium berghei, ANKA strain
# Experiment: Single oral dose antimalarial efficacy in P. berghei-infected mice
# Assay type: in vivo, C57BL/6J male mice
Compound,"Average survival (dimer 40 mg/kg combined with mefloquine hydrochloride 13 mg/kg, single oral dose)","Average Survival (days) After Infection (single oral dose 1 × 144 mg/kg, in parentheses actual mouse survival until day)"
"C[C@H]1[C@@H](CC(C[C@H]2O[C@@H]3C[C@]4(C)CC[C@H]5[C@H](C)CC[C@@H]([C@H]2C)[C@@]35OO4)CS(=O)(=O)c2ccc(CO)cc2)O[C@@H]2C[C@]3(C)CC[C@H]4[C@H](C)CC[C@@H]1[C@@]24OO3 (some centres unmarked) [Dimer 4b, dimeric sulfone benzylic alcohol]",28 days,–
"C[C@H]1[C@@H](CC(C[C@H]2O[C@@H]3C[C@]4(C)CC[C@H]5[C@H](C)CC[C@@H]([C@H]2C)[C@@]35OO4)CS(=O)(=O)c2ccc(COC(=O)N(C)C)cc2)O[C@@H]2C[C@]3(C)CC[C@H]4[C@H](C)CC[C@@H]1[C@@]24OO3 [Dimer 4c, dimeric sulfone benzylic dimethyl carbamate]",–,30.0 days
